Source: ChEMBL document CHEMBL3436046, “Predictive model for L-type channel inhibition: multichannel block in QT prolongation risk assessment” (J Appl Toxicol, 2012)

Protein sequences, listed by entry. Tags and fused reporters are not part of them.
UniProt O35505, whole entry: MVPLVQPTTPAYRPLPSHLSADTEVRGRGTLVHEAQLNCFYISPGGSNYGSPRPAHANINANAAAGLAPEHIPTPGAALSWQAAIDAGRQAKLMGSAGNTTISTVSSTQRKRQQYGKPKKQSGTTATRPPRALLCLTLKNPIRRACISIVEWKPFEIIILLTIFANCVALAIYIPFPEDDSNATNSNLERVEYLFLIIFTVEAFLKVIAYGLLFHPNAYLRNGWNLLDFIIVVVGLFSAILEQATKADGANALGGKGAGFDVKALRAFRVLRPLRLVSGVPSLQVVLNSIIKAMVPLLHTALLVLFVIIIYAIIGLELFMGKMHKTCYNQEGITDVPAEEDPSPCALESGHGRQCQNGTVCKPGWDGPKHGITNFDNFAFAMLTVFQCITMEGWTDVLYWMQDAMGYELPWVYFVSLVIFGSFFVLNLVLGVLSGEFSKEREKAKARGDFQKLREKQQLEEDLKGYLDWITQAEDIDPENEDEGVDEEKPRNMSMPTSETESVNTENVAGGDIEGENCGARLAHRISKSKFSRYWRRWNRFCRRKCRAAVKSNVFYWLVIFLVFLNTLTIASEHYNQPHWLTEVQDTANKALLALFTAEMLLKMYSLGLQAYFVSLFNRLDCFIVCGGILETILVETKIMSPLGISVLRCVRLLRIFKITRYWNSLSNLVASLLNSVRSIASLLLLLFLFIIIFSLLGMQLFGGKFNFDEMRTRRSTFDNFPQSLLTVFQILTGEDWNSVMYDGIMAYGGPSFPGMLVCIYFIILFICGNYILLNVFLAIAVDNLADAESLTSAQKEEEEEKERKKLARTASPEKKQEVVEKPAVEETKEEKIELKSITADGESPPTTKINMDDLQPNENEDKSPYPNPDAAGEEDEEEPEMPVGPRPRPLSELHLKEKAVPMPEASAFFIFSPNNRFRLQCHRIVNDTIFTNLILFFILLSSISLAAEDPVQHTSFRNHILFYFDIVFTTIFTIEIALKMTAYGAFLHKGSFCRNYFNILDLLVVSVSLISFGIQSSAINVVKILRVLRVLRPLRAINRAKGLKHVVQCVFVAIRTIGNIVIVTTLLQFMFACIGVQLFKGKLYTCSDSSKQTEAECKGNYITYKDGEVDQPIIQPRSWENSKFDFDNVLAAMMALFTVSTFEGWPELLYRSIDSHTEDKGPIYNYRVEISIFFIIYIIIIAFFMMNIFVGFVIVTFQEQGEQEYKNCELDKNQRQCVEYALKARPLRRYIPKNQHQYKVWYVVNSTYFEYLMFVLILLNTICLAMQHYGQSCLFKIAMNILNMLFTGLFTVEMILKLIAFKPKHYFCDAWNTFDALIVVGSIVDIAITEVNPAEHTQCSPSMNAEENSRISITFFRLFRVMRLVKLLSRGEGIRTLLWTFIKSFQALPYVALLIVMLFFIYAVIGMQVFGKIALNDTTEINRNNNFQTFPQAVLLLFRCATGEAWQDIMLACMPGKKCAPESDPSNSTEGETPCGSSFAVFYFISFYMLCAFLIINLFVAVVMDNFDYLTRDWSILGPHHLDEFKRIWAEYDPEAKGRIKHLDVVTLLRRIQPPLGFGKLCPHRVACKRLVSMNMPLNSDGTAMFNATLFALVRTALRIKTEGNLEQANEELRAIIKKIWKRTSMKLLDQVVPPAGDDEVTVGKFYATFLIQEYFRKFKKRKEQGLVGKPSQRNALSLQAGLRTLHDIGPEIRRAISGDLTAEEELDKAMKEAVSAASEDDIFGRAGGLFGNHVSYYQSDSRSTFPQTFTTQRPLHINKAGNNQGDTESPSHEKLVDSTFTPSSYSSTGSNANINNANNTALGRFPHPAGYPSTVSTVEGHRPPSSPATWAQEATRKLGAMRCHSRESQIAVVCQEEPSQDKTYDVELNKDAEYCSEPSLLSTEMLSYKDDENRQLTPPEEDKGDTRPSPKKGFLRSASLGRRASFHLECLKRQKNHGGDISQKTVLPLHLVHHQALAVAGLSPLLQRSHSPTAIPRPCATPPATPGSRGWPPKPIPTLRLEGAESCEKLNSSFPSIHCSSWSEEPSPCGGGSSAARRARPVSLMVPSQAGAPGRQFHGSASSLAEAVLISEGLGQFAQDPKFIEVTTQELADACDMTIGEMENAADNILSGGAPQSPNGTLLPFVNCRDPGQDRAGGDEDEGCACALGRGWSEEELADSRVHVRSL
UniProt Q13936, whole entry: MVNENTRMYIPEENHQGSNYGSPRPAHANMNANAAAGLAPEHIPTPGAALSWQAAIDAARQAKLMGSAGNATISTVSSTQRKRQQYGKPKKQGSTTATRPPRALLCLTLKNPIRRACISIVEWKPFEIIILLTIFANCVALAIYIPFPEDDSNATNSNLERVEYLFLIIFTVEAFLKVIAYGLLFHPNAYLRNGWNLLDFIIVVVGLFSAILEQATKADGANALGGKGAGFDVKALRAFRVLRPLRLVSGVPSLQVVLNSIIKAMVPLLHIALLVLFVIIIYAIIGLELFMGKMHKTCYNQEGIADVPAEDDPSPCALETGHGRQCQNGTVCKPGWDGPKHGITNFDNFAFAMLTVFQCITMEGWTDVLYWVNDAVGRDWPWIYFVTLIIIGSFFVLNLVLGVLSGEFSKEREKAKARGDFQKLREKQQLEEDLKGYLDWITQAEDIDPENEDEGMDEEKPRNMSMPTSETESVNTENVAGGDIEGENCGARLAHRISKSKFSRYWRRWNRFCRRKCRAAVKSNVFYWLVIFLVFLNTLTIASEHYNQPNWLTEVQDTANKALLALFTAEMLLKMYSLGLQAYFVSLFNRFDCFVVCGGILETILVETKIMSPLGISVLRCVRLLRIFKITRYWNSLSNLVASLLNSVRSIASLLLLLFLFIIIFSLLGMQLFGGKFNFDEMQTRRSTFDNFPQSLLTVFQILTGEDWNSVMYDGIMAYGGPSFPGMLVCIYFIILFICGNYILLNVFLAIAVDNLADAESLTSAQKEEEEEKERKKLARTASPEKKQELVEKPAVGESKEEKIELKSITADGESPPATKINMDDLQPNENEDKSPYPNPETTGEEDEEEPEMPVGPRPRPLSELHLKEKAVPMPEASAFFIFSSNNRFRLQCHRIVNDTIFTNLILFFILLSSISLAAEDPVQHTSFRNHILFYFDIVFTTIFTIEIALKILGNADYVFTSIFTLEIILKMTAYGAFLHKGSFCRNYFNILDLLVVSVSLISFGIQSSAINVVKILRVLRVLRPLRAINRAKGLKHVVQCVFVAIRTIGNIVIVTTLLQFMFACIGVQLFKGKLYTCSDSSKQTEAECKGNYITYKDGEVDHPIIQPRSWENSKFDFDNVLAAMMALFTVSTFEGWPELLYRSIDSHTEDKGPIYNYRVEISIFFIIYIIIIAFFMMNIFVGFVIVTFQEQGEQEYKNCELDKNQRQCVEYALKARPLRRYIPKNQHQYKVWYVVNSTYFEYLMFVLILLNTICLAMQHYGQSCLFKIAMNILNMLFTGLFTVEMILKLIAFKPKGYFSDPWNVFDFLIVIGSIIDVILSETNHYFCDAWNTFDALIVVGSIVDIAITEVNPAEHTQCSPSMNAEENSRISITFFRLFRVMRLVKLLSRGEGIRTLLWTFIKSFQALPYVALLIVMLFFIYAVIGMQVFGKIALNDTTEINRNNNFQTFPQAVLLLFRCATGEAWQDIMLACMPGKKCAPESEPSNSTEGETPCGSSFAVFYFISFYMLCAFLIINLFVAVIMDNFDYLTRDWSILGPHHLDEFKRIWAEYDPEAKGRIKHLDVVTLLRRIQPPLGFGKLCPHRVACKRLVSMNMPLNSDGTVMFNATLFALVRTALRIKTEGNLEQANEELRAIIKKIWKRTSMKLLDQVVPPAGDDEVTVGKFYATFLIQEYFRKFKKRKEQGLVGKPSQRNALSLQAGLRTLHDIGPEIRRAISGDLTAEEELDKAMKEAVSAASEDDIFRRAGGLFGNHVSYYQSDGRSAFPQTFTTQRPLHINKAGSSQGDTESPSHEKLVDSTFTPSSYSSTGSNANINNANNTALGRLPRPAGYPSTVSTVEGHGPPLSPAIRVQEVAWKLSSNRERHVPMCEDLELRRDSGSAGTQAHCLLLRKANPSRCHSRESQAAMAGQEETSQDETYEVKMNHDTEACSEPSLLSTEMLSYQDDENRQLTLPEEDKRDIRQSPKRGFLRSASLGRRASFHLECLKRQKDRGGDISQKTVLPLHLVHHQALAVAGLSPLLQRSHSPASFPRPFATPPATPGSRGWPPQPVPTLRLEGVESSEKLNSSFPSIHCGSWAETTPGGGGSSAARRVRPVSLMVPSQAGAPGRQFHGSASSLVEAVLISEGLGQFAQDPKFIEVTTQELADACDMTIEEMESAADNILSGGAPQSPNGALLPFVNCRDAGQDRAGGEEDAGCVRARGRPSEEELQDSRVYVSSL

What was measured:
[1] = biological target: T1, Voltage-dependent L-type calcium channel subunit alpha-1C (Cavia porcellus, UniProt O35505)
[2] = biological target: T1, Voltage-dependent L-type calcium channel subunit alpha-1C; remark: listed apart in the source
[3] = biological target: T1, Voltage-dependent L-type calcium channel subunit alpha-1C; remark: listed apart in the source
[4] = biological target: Voltage-dependent L-type calcium channel subunit alpha-1C (Homo sapiens, UniProt Q13936)

IC50 [1]	IC50 [2]	IC50 [3]	IC50 [4]	SMILES
74 µM	0.63 µM	30 µM	–	COc1ccc([C@@H]2Sc3ccccc3N(CCN(C)C)C(=O)[C@@H]2OC(C)=O)cc1 [DILTIAZEM]
–	–	–	1.4 µM	CC(C)COCC(CN(Cc1ccccc1)c1ccccc1)N1CCCC1 (centres undefined) [BEPRIDIL]
